These results are taken from US20060216238A1, “Compositions and methods for targeting or imaging a tissue in a vertebrate subject” (priority 2005, published 2006).

The series in a line: CPMV injections in adult mice (tail vein), tissue cryosections. The class given is in vivo, mouse. On the procedure: CPMV injections in adult mice. CPMV-AlexaFluor555 conjugate and/or FITC-dextran (10 kDa, Molecular Probes) (50 μg-1 mg in 0.1-0.2 mL PBS) were injected in the tail vein of CD-1 mice and allowed to circulate for 5 min up to 72 hrs. Tissues were fixed in 4% paraformaldehyde for 4 hours and frozen in Tissue Tek OCT embedding medium (Sakura Finetek) before sectioning. The 20 μm cryosections were mounted with Vectashield mounting medium (Vector Laboratories) before examination under a fluorescent microscope (Zeiss Axioplan2). In the experiments that utilized PEG-coated fluorescent CPMV, adult mice were injected in the tail vein with 250 μg or 500 μg of either CPMV-FITC or CPMV-PEG-FITC, and tissues were collected after 1 hr.

For FITC-dextran, the “depletion from the circulation” value (adult mice, tail vein) is recorded as “gradually depleted from the circulation over 72 h”. For the setting “after tail vein injection”, the “onset of accumulation in liver and spleen” value was “almost immediately”.
